{"source": "paper PMC9918544", "target": "GLFG_(52×12)", "test": "partitioning into the condensed FG phase (confocal laser scanning microscopy); FG particles of unlabelled FG domain in assay buffer (50 mM Tris/HCl, 5 mM DTT, 150 mM NaCl) mixed with fluorescent probe: 6 μM mCherry, 3 μM EGFP, 1 μM NTR or 1.5 μM NTR pre-incubated with 1 μM cargo; partition coefficient = signal in the centre of the particle / buffer; 21 °C", "data": [{"substance": "NTF2·RanGDP complex (Ran labelled with Atto488) (from UniProt P61970 1-127; P62826 1-216)", "values": [{"measurement": "partition coefficient", "result": "> 200"}]}]}
